# Binding of CDR-mutated scFvs to a peptide of the spike HR2 region

Target: peptide PDVDLGDISGINAS, taken from heptad repeat 2 (HR2) of SARS-CoV-2 spike.

The variants keep the heavy chain, the linker and the frameworks of Ab-14 (scFv order VH, a (GGGGS)3 linker, VL).
VH: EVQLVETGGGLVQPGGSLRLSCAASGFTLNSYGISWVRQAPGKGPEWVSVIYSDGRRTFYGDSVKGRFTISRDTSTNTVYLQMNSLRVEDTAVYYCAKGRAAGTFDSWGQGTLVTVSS
VL: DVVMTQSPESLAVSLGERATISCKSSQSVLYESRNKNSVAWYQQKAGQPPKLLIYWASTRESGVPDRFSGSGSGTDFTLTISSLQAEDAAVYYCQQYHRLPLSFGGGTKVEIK

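The variants were designed computationally from a first round of random CDR variants and then made and measured. Their group label is 14L_GP_Gen (GP: Gaussian process model; Gen: genetic algorithm; a sequence that several methods proposed may carry one label only). AlphaSeq pools MATa yeast showing the antibodies with MATalpha yeast showing the peptide. Binding brings cells together so that they mate, and sequencing counts the barcode pairs among the diploids. A regression on co-assayed BCL2-family reference pairs converts the normalised counts of each replicate to an apparent Kd. There are six technical replicates.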

Each variant is given by its three light chain CDRs, as the data file delimits them; those of the parent are KSSQSVLYESRNKNSVA, WASTRES, QQYHRLPLS. Values are log10 of the apparent Kd in nM; lower means stronger binding. The mean shown is taken over the replicates in which the pair was detected. The range of this assay differs from that of the first round, and the authors advise against merging the two.

| CDR-L1 | CDR-L2 | CDR-L3 | replicates, log10 nM | mean, log10 nM | control signals |
|---|---|---|---|---|---|
| KVSQSWLYESRNSNSVA | NASTRES | QQYHRLPLS | 0.41 / 0.39 / 0.21 / 0.21 / 0.24 / 0.49 | 0.33 | 2 of 18 (3.78) |
| KVSQSWLYESRNKNSVA | NGSTRES | QQYHRLPLS | -0.17 / -0.02 / -0.38 / -0.37 / -0.41 / -0.09 | -0.24 | 1 of 18 (2.82) |
| KLSMSWLYESRNKNSVA | GASTRES | QQYHRLPLS | -0.02 / -0.26 / 0.01 / -0.47 / -0.05 / -0.08 | -0.14 | 0 of 18 |
| KLPQSVEYESRNKNSVA | EASTRES | QQYHRLPLS | 0.39 / 0.32 / 0.25 / 0.17 / 0.42 / 0.42 | 0.33 | 4 of 18 (3.44) |
| KLSQSVLYESRVKNSVA | EASQRES | QQYHRLPLS | -0.56 / -0.59 / -0.43 / -0.64 / -0.82 / -0.29 | -0.56 | 1 of 18 (2.58) |
| KLSQSFLYESRNKNSVA | NASTRES | QQYHRLPLS | -0.16 / -0.44 / -0.43 / -0.40 / -0.46 / -0.30 | -0.37 | 2 of 18 (2.43) |
| KLSQSFLYESRNKNSVA | EASTRMS | QQYHRLPLS | -0.03 / -0.24 / 0.07 / -0.14 / -0.17 / -0.05 | -0.09 | 1 of 18 (2.55) |
| KLQQSVLYESRNKNSVA | SASTRMS | QQYHRLPLS | -0.07 / -0.01 / -0.37 / -0.27 / -0.20 / 0.10 | -0.14 | 1 of 18 (1.69) |
| KLSMSDLYESRNKNSVA | EASTRES | QQYHRLPLS | 0.98 / 0.96 / 0.78 / 0.63 / 1.15 / 0.78 | 0.88 | 0 of 18 |
| KLSQSQLYESRNKNNVA | NASQRES | QQYHRLPLS | 0.03 / -0.04 / -0.26 / -0.28 / -0.25 / -0.17 | -0.16 | 1 of 18 (2.46) |
| KLSQSELYESRNKNSVA | NASQREE | QQYHRLPLS | 0.20 / 0.07 / 0.13 / -0.27 / -0.13 / 0.28 | 0.05 | 0 of 18 |
| KLSQSYLYESRNKNSVA | EASTREV | QQYHRLPLS | -0.40 / -0.59 / -0.54 / -0.53 / -0.64 / -0.21 | -0.48 | 0 of 18 |
| KLSQSVLYESRNKNSVA | NASTRCS | QQYHRLPLS | -0.29 / -0.27 / -0.43 / -0.48 / -0.37 / -0.09 | -0.32 | 6 of 18 (2.59) |
| KLSQSVLYESRNKNSVA | EAHTRES | QQYHRLPLS | 0.11 / -0.19 / -0.22 / -0.34 / -0.23 / -0.04 | -0.15 | 1 of 18 (3.89) |
| KLSWSVLYESRNKNSVA | GASTRES | QQYHRLPLS | -0.34 / -0.12 / -0.38 / -0.44 / -0.34 / -0.20 | -0.30 | 0 of 18 |
| KLQQSVLYESRNKNSVA | EASTREE | QQYHRLPLS | 0.36 / 0.08 / -0.21 / -0.10 / -0.06 / -0.39 | -0.05 | 0 of 18 |
| FLSQSVLYESRNKNSVA | NASTRCS | QQYHRLPLS | -0.06 / 0.01 / -0.23 / -0.30 / -0.10 / -0.09 | -0.13 | 1 of 18 (4.86) |
| KLSQSVLYESRNKNSVA | NAHTRES | QQYHRLPLS | -0.03 / -0.53 / -0.31 / -0.53 / -0.37 / -0.35 | -0.35 | 0 of 18 |
| KLSQSVLYESRNKNSVA | QASTRES | QQYHRLPLM | 0.18 / 0.24 / 0.17 / 0.04 / 0.22 / 0.52 | 0.23 | 1 of 18 (1.22) |
| KLSQSVLYESRNKNSVA | EASTRES | QQYHRLPLW | -0.35 / -0.34 / -0.54 / -0.41 / -0.38 / -0.40 | -0.40 | 1 of 18 (2.07) |
| KVSQSFLYEDRNKNSVA | NASQRES | QQYHRLPLS | 0.24 / -0.17 / -0.25 / -0.01 / -0.54 / -0.08 | -0.14 | 1 of 18 (1.89) |
| KLSQSMLYESRNSNSVA | NASQRES | QQYHRLPLS | 0.15 / -0.32 / -0.41 / -0.33 / -0.33 / 0.00 | -0.21 | 3 of 18 (2.86) |
| KLPQSQLYESRNKNSVA | NASTRLS | QQYHRLPLS | -0.04 / -0.11 / 0.02 / -0.30 / 0.01 / -0.03 | -0.08 | 3 of 18 (2.48) |
| KLEQSELYESRNKNSVA | GASTRES | QQYHRLPLS | 0.32 / 0.56 / 0.06 / 0.35 / 0.42 / 0.45 | 0.36 | 0 of 18 |
| KLSQSNLYESRNKNSVA | NASTRYS | QQYHRLPLS | 0.01 / 0.16 / 0.36 / 0.04 / -0.21 / 0.34 | 0.11 | 1 of 18 (1.12) |
| KLSQSMLYESRNKNSVA | NASTRMS | QQYHRLPLS | -0.24 / -0.36 / -0.40 / -0.55 / -0.41 / -0.30 | -0.38 | 2 of 18 (3.51) |
| KLPQSVLYESRNKNSVA | NASKRES | QQYHRLPLS | 0.24 / 0.17 / 0.15 / 0.03 / 0.23 / 0.28 | 0.18 | 3 of 18 (2.24) |
| KLSQSVDYESRNKNSVA | DASTRES | QQYHRLPLS | -0.01 / -0.12 / -0.28 / -0.50 / -0.30 / -0.27 | -0.25 | 0 of 18 |
| KVSQSVLYEQRNKNSVA | EASTRLS | QQYHRLPLS | 0.32 / 0.04 / 0.06 / 0.03 / 0.02 / 0.02 | 0.08 | 2 of 18 (3.02) |
| FLSQSQLYESRNKNSVA | NASTRLS | QQYHRLPLS | 0.03 / 0.30 / -0.09 / 0.03 / 0.10 / -0.04 | 0.06 | 1 of 18 (2.85) |
| KLQQSVPYESRNKNSVA | SASTRES | QQYHRLPLS | 0.10 / -0.08 / -0.07 / -0.08 / -0.14 / -0.01 | -0.05 | 2 of 18 (3.13) |
| KLPQSMLYESRNKNSVA | EASTRES | QQYHRLPLS | -0.44 / -0.40 / -0.36 / -0.53 / -0.64 / -0.47 | -0.47 | 0 of 18 |
| KLQQSQGYESRNKNSVA | HASTRES | QQYHRLPLS | 0.83 / 0.46 / 0.06 / -0.16 / 0.19 / 0.15 | 0.26 | 0 of 18 |
| KLSQSVLYESRNKNSVA | HASTRYS | QQYHRLPLS | 0.33 / 0.20 / 0.39 / 0.07 / 0.25 / 0.38 | 0.27 | 1 of 18 (2.62) |
| KLEQSCLYESRNKNSVA | NASTRLS | QQYHRLPLS | 0.22 / 0.07 / -0.17 / -0.08 / -0.12 / 0.00 | -0.01 | 0 of 18 |
| KLSGSYLYESRNKNSVA | NASTRES | QQYHRLPLS | -0.07 / -0.23 / -0.13 / -0.25 / -0.29 / -0.15 | -0.19 | 6 of 18 (3.44) |
| KLQQSELYESRNKNSVA | EASTRCS | QQYHRLPLS | 0.33 / 0.10 / -0.22 / -0.24 / -0.03 / 0.19 | 0.02 | 0 of 18 |
| KVSQSVLYESRNKNSVA | DASTRES | QSYHRLPLS | -0.17 / -0.10 / -0.20 / -0.29 / -0.24 / -0.17 | -0.19 | 2 of 18 (1.47) |
| KFQQSELYESRNKNSVA | NASTRMS | QQYHRLPLS | -0.33 / -0.30 / -0.38 / -0.54 / -0.50 / -0.16 | -0.37 | 2 of 18 (2.96) |
| KLSQSVDYESRNKNSVA | AASTRES | QQYHRLPLS | -0.04 / -0.06 / -0.26 / -0.19 / -0.20 / -0.23 | -0.16 | 0 of 18 |
| KVSQSVPYESRNKNSVA | EASTRES | QQYHRLPLS | 0.29 / 0.00 / 0.01 / 0.02 / 0.01 / 0.32 | 0.11 | 0 of 18 |
| KLQQSVLYESRNKNSVA | NASTRES | QQYHRLPLM | -0.16 / -0.20 / -0.25 / -0.23 / -0.33 / -0.15 | -0.22 | 2 of 18 (3.29) |
| KVMQSQLYESRNKNSVA | NASQRES | QQYHRLPLS | -0.34 / -0.38 / -0.53 / -0.47 / -0.34 / -0.16 | -0.37 | 0 of 18 |
| KLPQSVLYESRNKNSVA | AASTRES | QQYHRLPLS | -0.11 / -0.23 / -0.37 / -0.44 / -0.36 / -0.12 | -0.27 | 2 of 18 (3.51) |
| KLSQSVLYESRNKNSVA | DASTRYS | QQYHRLPLS | 0.11 / -0.19 / -0.29 / -0.26 / -0.39 / -0.15 | -0.19 | 1 of 18 (1.80) |
| KLSQSYLYESRNKNSVA | NASTREK | QQYHRLPLS | 0.08 / -0.40 / -0.42 / -0.63 / -0.37 / -0.17 | -0.32 | 2 of 18 (2.84) |
| KVPQSNLYESRNKNSVA | EASTRES | QQYHRLPLS | 0.09 / 0.31 / -0.02 / -0.04 / -0.04 / -0.03 | 0.05 | 3 of 18 (2.67) |
| KLSGSMLYESRNKNSVA | NASQRES | QQYHRLPLS | -0.13 / -0.18 / -0.36 / -0.46 / -0.22 / -0.21 | -0.26 | 2 of 18 (2.54) |
| KVQQSGLYESRNKNSVA | EASTRES | QQYHRLPLS | 0.06 / -0.03 / -0.18 / -0.02 / -0.22 / -0.06 | -0.08 | 1 of 18 (2.66) |
| KISQSVLYESRNKNSVA | NASTRCS | QQYHRLPLS | 0.41 / 0.57 / 0.57 / 0.15 / 0.26 / 0.75 | 0.45 | 0 of 18 |
| KVEQSMLYESRNKNSVA | NASTRES | QQYHRLPLS | -0.08 / -0.38 / -0.38 / -0.36 / -0.18 / -0.08 | -0.24 | 1 of 18 (1.87) |

Excerpt, the first 7 entries:

CDR-L1,CDR-L2,CDR-L3,"replicates, log10 nM","mean, log10 nM",control signals
KVSQSWLYESRNSNSVA,NASTRES,QQYHRLPLS,0.41 / 0.39 / 0.21 / 0.21 / 0.24 / 0.49,0.33,2 of 18 (3.78)
KVSQSWLYESRNKNSVA,NGSTRES,QQYHRLPLS,-0.17 / -0.02 / -0.38 / -0.37 / -0.41 / -0.09,-0.24,1 of 18 (2.82)
KLSMSWLYESRNKNSVA,GASTRES,QQYHRLPLS,-0.02 / -0.26 / 0.01 / -0.47 / -0.05 / -0.08,-0.14,0 of 18
KLPQSVEYESRNKNSVA,EASTRES,QQYHRLPLS,0.39 / 0.32 / 0.25 / 0.17 / 0.42 / 0.42,0.33,4 of 18 (3.44)
KLSQSVLYESRVKNSVA,EASQRES,QQYHRLPLS,-0.56 / -0.59 / -0.43 / -0.64 / -0.82 / -0.29,-0.56,1 of 18 (2.58)
KLSQSFLYESRNKNSVA,NASTRES,QQYHRLPLS,-0.16 / -0.44 / -0.43 / -0.40 / -0.46 / -0.30,-0.37,2 of 18 (2.43)
KLSQSFLYESRNKNSVA,EASTRMS,QQYHRLPLS,-0.03 / -0.24 / 0.07 / -0.14 / -0.17 / -0.05,-0.09,1 of 18 (2.55)

The authors averaged sequences with at least three values out of six and counted those with two or fewer as poor binders. The parent sequence was in this pool as ten entries: three were never detected, three once, and four in most replicates, with averages from 0.34 to 2.37. As a blank, each scFv also met three strains without target: over all light chain designs, 4% of these pairings were detected, typically at 2.64 and seldom below 1.59. The control count says in how many pairings with the empty strains this scFv gave a signal, with their mean in brackets.

From the AlphaSeq antibody data of Li et al. 2023 (doi:10.1038/s41467-023-39022-2), copy in the FLAb collection.